Source: patent publication US20250195521A1 (Revolution Medicines, Inc., priority 2020, published 2025)
Entries after “also recorded” stand apart in the source; their conditions may differ.

Experiments:
[1] = test system: KLN205 cells (SHP2 G503V); assay: pERK AlphaLISA in KLN205 cells; assay type: cell-based, mouse
Source text: (§1) In this example, two mouse tumor cell lines, KLN205 (lung squamous cell carcinoma) and PAN02 (pancreatic cancer), were characterized.
(§2) See FIGS. 5A through 5D, which are graphs depicting the pERK AlphaLISA® assay.

PAN02 cells (SHP2 G503V) [2] = assay: pERK AlphaLISA in PAN02 cells; assay type: cell-based, mouse
Source text: as §1, §2

[3] = test system: KLN205 cells (SHP2 G503V); assay: CellTiter-Glo viability in KLN205 cells; assay type: cell-based, mouse
Source text: as §1, §2

PAN02 cells (SHP2 G503V) [4] = assay: CellTiter-Glo viability in PAN02 cells; assay type: cell-based, mouse
Source text: as §1, §2

[5] = test system: KLN205 tumors (SHP2 G503V); assay: KLN205 syngeneic tumor model (Example 2); conditions: mouse
[6] = test system: PAN02 tumors (SHP2 G503V); assay: PAN02 syngeneic tumor model (Example 2); conditions: mouse

Structure (SMILES): COc1cc2nc(C)nc(N[C@H](C)c3cc(N)cc(C(F)(F)F)c3)c2cc1O[C@H]1CCOC1 [BI-3406]
- inhibition of pERK [1]: potently inhibited
- inhibition of pERK (PAN02 cells (SHP2 G503V) [2]): potently inhibited
- inhibition of cell growth [3]: potently inhibited
- inhibition of cell growth (PAN02 cells (SHP2 G503V) [4]): potently inhibited
- inhibition of tumor growth in vivo [5]: near complete inhibition of tumor growth; also recorded: substantially higher levels of tumor growth inhibition
- inhibition of tumor growth in vivo [6]: near complete inhibition of tumor growth
